Test results from ChEMBL document CHEMBL5042486, “Discovery and Preclinical Characterization of BIIB091, a Reversible, Selective BTK Inhibitor for the Treatment of Multiple Sclerosis” (J Med Chem, 2022).

Chains of the proteins cited; added tags and fusions are not shown. Lines headed by an entry give the natural chain unless they say otherwise; changes in a name come on top.
UniProt Q06187: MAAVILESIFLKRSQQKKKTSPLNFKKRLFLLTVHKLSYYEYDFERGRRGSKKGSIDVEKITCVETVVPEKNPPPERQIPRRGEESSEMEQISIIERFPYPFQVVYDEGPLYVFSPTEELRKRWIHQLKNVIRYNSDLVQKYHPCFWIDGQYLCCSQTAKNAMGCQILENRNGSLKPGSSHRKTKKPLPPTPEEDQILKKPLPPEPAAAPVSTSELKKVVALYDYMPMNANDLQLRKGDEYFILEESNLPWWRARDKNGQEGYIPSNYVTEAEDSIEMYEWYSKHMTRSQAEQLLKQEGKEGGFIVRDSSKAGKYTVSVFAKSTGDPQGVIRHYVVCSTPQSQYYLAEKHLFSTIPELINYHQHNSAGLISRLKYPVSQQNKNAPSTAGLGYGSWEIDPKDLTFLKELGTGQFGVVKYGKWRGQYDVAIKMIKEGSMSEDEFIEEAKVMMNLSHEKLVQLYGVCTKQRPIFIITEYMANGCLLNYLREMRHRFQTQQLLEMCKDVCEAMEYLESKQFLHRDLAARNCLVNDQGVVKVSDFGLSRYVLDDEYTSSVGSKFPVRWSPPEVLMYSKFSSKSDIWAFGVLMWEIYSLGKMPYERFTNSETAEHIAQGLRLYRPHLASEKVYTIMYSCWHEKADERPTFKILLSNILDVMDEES

What was measured:
[1] = target: T1, Tyrosine-protein kinase BTK (Homo sapiens, UniProt Q06187); test: Binding affinity to wild-type human full length BTK (M1 to S659 residues) expressed in mammalian expression system by Kinomescan method
[2] = target: T1, Tyrosine-protein kinase BTK; test: Inhibition of human BTK using fluorescein-labeled polyGAT peptide as substrate incubated for 30 mins by FRET assay
[3] = target: T1, Tyrosine-protein kinase BTK; test: Inhibition of BTK phosphorylation in human whole blood assessed as reduction in BTK phosphorylation incubated for 30 mins; assay type: tissue-based
[4] = target: T1, Tyrosine-protein kinase BTK
[5] = target: T1, Tyrosine-protein kinase BTK; remark: listed apart in the source

| Kd [1] [nM] | IC50 [2] [nM] | IC50 [3] [nM] | IC50 [4] [nM] | IC50 [5] [nM] | SMILES |
| --- | --- | --- | --- | --- | --- |
| 0.24 | < 1 | – | – | – | C[C@@H]1CN(C2COC2)CCN1c1ccc(Nc2cc(-c3ccnc(N4CCn5c(cc6c5CC(C)(C)C6)C4=O)c3CO)cn(C)c2=O)nc1 |
| – | 1 | 40 | – | – | C=CC(=O)Nc1cccc(Nc2nc(Nc3ccc(OCCOC)cc3)ncc2F)c1 [SPEBRUTINIB] |
| – | < 0.5 | 24 | 6900 | 5.4 | Cn1cc(Nc2nccc(-c3ccc4c(c3)CN(C3COC3)CC[C@H]4NC(=O)c3cn(C(C)(C)C)nn3)n2)cn1 [BIIB-091] |
